Drawing on article PMC11369174 (Molecular Systems Biology, 2024), this text covers Kd for 1 molecule.

For this assay, the target named is Kelch-like ECH-associated protein (KEAP1) KELCH domain (human). The assay can be described thus: fluorescence polarisation; displacement: unlabelled peptide titrated onto a complex of FITC-labelled peptide (10 nM) and protein domain (1-2x KD); 50 mM sodium phosphate buffer pH 7.4 (CASK: plus 100 mM NaCl); KD calculated from IC50; technical triplets. To be noted: both partners purified.

As for SKEVDPSTGELQSLY [SQSTM1_(343-356) wild-type peptide], the dissociation constant Kd is 900 nM.

The Kd is a measure of binding affinity in units of concentration.
